For 45 molecules, activation results are on record in PubChem BioAssay AID624171 (National Center for Advancing Translational Sciences (NCATS), 2012).

The entries are a selection whose mix differs from that of the whole data set. Some salts or complexes appear as unconnected parts, following the source record. Calls of active or inactive are those of the source. The call rests on the fitted dose curve; in most records, active means well fitted activation curve with a large enough effect; inconclusive means small, poorly fitted or top-dose-only effect; inactive means flat fitted curve, though single readings scatter.

The assay is described as follows: qHTS of Nrf2 Activators. Further: % of control where 0% means no effect; nearly all actives have a fitted effect of over 65% in size. To be noted: AREc32 ARE-luciferase reporter (MCF7-derived line), luminescence, 24 h; at 46.1 µM (top of the series) unless noted. The text has this:
Many diseases have some form of oxidative stress injury and ties to inflammation, causing a host of problems for the patient. The antioxidant response element (ARE) plays an important role in alleviating the harmful effects of oxidative stress. The antioxidant response element (ARE) is a transcriptional regulatory element involved in the activation of genes coding for a number of antioxidant proteins and detoxifying enzymes. These enzymes work in concert to protect tissues from oxidative insults and chemical toxicities in human hepatocytes and immune cells. The protective effects of ARE activation are primarily triggered through Nrf2 (NF-E2-related factor) binding to and activating AREs. It is known that Nrf2 controls the production of over 250 antioxidant and detoxification proteins (Hu et al., 2006), thereby protecting tissues by increasing cellular antioxidant content and suppressing inflammatory signaling pathways. The transcription factor Nrf2 is a central link between oxidative chemicals, such as phenolic antioxidants and electrophilic compounds, and the activation of ARE. Nrf2 levels are constitutively low as a consequence of its interaction with Keap1, which targets its degradation (Zipper and Mulcahy, 2002). Electrophiles react with key cysteine residues in Keap1, releasing Nrf2 and allowing its translocation to the nucleus. Once within the nucleus, Nrf2 complexes with coactivators such as p300, and binds to the AREs to induce gene transcription of cytoprotective enzymes, resulting in the prevention of toxicity. Activation of Nrf2 protects tissues by increasing cellular antioxidant content and suppressing inflammatory signaling pathways. Identifying novel and potent Nrf2 activators by using the AREc32 cell line to detect ARE activation by small molecules will lead to the identification and development of probes to study protective pathways in multiple tissues. These specific probes are essential to study the ARE pathway, and eventually to determine whether this pathway does activate genes that could protect against a host of diseases, including cardiovascular diseases, obesity, diabetes, Alzheimer's, and Parkinson's disease.
This project's aim is to identify novel and potent Nrf2 activators by using the AREc32 cell line to detect ARE activation by small molecules, which will lead to the identification and development of probes to study the ARE pathway.
NIH Chemical Genomics Center [NCGC]
NIH Molecular Libraries Probe Centers Network [MLPCN]
Assay Submitter (PI): Curtis Klaassen, University of Kansas Medical Center
5 uL of 1000 cells/well of AREc32_Fluc cells are seeded into 1536-well plate in OPTI-MEM medium with 5% FBS. The plates are incubated overnight at 37 deg C with 5% CO2. Then through pin tool transfer, 23 nL of compounds are added to each well before a 24 hr incubation at 37 deg C with 5% CO2. After the addition of 2.5 uL of Steady-Glo. the plates are kept at RT for 30 min, before they are read on the ViewLux.
(In general: qHTS replaces the single test concentration by a dilution series.)
On to `O=C(NCC1(N2CCCCC2)CCCCC1)c1ccc(OC(F)F)cc1`, for which the activation is inactive: -0.232%. In the case of `CN1CCN(CCOC(=O)C(O)(c2ccccc2)c2ccccc2)CC1` it was inactive: -0.469%; in that of `CC(C)c1ccc(C(=O)NCC2(N3CCOCC3)CCCCC2)cc1`, inactive: -0.392%; in that of `COc1ccc(NC2CCN(C(=O)OC(C)(C)C)CC2)cc1`, inactive: 2.86%. With `CCCCn1nnnc1C(c1cccc2ccccc12)N1CCC(n2c(=O)[nH]c3ccccc32)CC1` (stereo not given) the figure was inactive: -1.04%.

`COc1cc(C(=O)NCC2(N3CCCCC3)CCCCC2)ccc1OC(F)F`: the activation is inactive: -0.137%. Regarding `O=C(NCC1(N2CCOCC2)CCCCC1)c1cc(=O)[nH]c2ccccc12`, the activation is inactive: 0.694%. In the case of `CCCOc1cccc(C(=O)NCC2(N3CCOCC3)CCCCC2)c1` it was inactive: -0.447%; in that of `O=C(NCC1(N2CCCCC2)CCCCC1)c1cccc(C(F)(F)F)c1`, inactive: 0.248%. For the molecule `O=[N+]([O-])c1cc([N+](=O)[O-])c(NCC2CCS(=O)(=O)C2)c([N+](=O)[O-])c1` (stereo not given), the activation is inactive: -0.575%. With `CCCCn1nnnc1C(c1ccnc2ccccc12)N1CCC(n2c(=O)[nH]c3ccccc32)CC1` (stereo not given) the figure was inactive: 0.171%; with `COc1cc(OC)c(C(=O)NCC2(N(C)C)CCCCC2)cc1OC`, inactive: -0.766%. Take `CCC(c1nnnn1C(C)(C)C)N1CCC(n2c(=O)[nH]c3ccccc32)CC1` (stereo not given): the activation is inactive: 0.0702%.

As to `O=C(NCC1(N2CCOCC2)CCCCC1)c1cc(F)c(F)cc1Cl`, the activation is inactive: -0.212%. In the case of `COc1ccc(CN(CCCl)CCCl)cc1Cl` it was inactive: -0.82% [at 9.22 µM]; in that of `O=[N+]([O-])c1cc([N+](=O)[O-])c(OC2CCCCC2O)c([N+](=O)[O-])c1` (stereo not given), inactive: 0.407%; in that of `CN(C)c1cccc(C(=O)NCC2(N3CCCCC3)CCCCC2)c1`, inactive: 0.201%. In the case of `CC(C)c1ccc(NC2CCN(C(=O)OC(C)(C)C)CC2)cc1` it was inactive: 2.54%.

As for `CCCCn1nnnc1C(c1ccccc1OC(F)(F)F)N1CCC(n2c(=O)[nH]c3ccccc32)CC1` (stereo not given), the activation is inactive: -3.27%. With `CCCCOc1ccccc1C(=O)NCC1(N2CCOCC2)CCCCC1` the figure was inactive: 7.36%; with `Cc1ccc(C(=O)NCC2(N(C)C)CCCCC2)o1`, inactive: -0.495%; with `O=C(NCC1(N2CCOCC2)CCCCC1)c1ccccc1Br`, inactive: -1.14%.

As for `CCCOc1ccc(C(=O)NCC2(N(C)C)CCCCC2)cc1OC`, the activation was inactive: 1.87%. In the case of `COc1ccc(C(c2nnnn2C2CCCC2)N2CCC(n3c(=O)[nH]c4ccccc43)CC2)cc1` (stereo not given) it was inactive: 5.28%; in that of `CN1CCC(Nc2cccc(F)c2)CC1`, inactive: 1.72%; in that of `COc1ccc2c(c1O)-c1c(O)c(OC)cc3c1[C@H](C2)[N+](C)(C)CC3.O=[N+]([O-])c1cc([N+](=O)[O-])c([O-])c([N+](=O)[O-])c1[O-]`, inactive: -0.595%. Take `O=C(NCC1(N2CCCCC2)CCCCC1)c1cncc(Br)c1`: the activation was inactive: -0.468%. In the case of `O=C(OC1CN2CCC1CC2)c1ccc([N+](=O)[O-])cc1` (stereo not given) it was inactive: -0.0527%; in that of `COc1ccc(C(=O)NCC2(N3CCOCC3)CCCCC2)cc1OC`, inactive: 0.0245%. In the case of `O=c1[nH]c2ccccc2n1C1CCN(C(c2ccnc3ccccc23)c2nnnn2C2CCCC2)CC1` (stereo not given) it was inactive: 5.15%. In the case of `O=c1[nH]c2ccccc2n1C1CCN(C(c2cccs2)c2nnnn2C2CCCCC2)CC1` (stereo not given) it was inactive: 0.336%; in that of `O=C(NCC1(N2CCOCC2)CCCCC1)c1cc(Br)ccc1Cl`, inactive: -0.699%; in that of `CCCCn1nnnc1C(c1ccccc1)N1CCC(n2c(=O)[nH]c3ccccc32)CC1` (stereo not given), inactive: -0.224%. As for `COc1cc(C(=O)NCC2(N3CCOCC3)CCCCC2)cc(OC)c1C`, the activation was inactive: 3.55%. With `CCCCn1nnnc1C(c1cccc(OC)c1OC)N1CCC(n2c(=O)[nH]c3ccccc32)CC1` (stereo not given) the figure was inactive: -1.11%; with `CCc1cc(C(=O)NCC2(N3CCCCC3)CCCCC2)sc1C`, inactive: 3.96%; with `O=C(OC1CN2CCC1CC2)C1c2ccccc2C=Cc2ccccc21` (stereo not given), inactive: -0.343%. In the case of `O=C(O)c1cccc(Nc2c([N+](=O)[O-])cc([N+](=O)[O-])cc2[N+](=O)[O-])c1` it was inactive: 9.01%.

Consider `O=c1[nH]c2ccccc2n1C1CCN(C(c2cccs2)c2nnnn2C2CCCC2)CC1` (stereo not given), for which the activation is inactive: 0.982%. With `N/C(=N\O)c1c(N)no[n+]1[O-]` the figure was inactive: 0.455%. `CCOC(=O)N1CCC(Nc2ccc(C)cc2)CC1`: the activation is inactive: -0.226%. In the case of `COc1cccc(C(c2nnnn2C(C)(C)C)N2CCC(n3c(=O)[nH]c4ccccc43)CC2)c1OC` (stereo not given) it was inactive: -0.119%.

Take `CCOC(=O)C(CC)C1=NC(C)(C)Cc2ccccc21.O=[N+]([O-])c1cc([N+](=O)[O-])c(O)c([N+](=O)[O-])c1` (stereo not given): the activation is inactive: 0.138%. With `O=C(NCC1(N2CCOCC2)CCCCC1)c1ccc([N+](=O)[O-])cc1` the figure was inactive: -1.44%; with `CC(C)(C)OC(=O)N1CCC(N(C(=O)c2ccccc2)c2ccc(Cl)cc2)CC1`, inactive: 3.38%.
